Read-outs that look alike come from different tables or passages of the source.
Assays:
[1] = tested on: male albino rats (Sprague Dawley); settings: alone, mean ± SEM, n = 10
rat = experiment: Randall Selitto test in rats (Carrageenin-induced inflammatory pain); assay type: in vivo; settings: for ED50: (95% CI)

CN(C)[C@]1(c2ccccc2)CC[C@]2(CC1)OCCc1c3cc(F)ccc3[nH]c12
% MPE (Maximum possible effect) ([1]; 0.0046 mg/kg i.v., 30 min): 12.2 ± 2.69 % MPE
% MPE (Maximum possible effect) ([1]; 0.0046 mg/kg i.v., 60 min): 10.6 ± 3.51 % MPE
% MPE (Maximum possible effect) ([1]; 0.0046 mg/kg i.v., 90 min): 2.88 ± 2.27 % MPE
% MPE (Maximum possible effect) ([1]; 0.01 mg/kg i.v., 30 min): 43.2 ± 2.61 % MPE
% MPE (Maximum possible effect) ([1]; 0.01 mg/kg i.v., 60 min): 34.1 ± 4.88 % MPE
% MPE (Maximum possible effect) ([1]; 0.01 mg/kg i.v., 90 min): 7.71 ± 2.23 % MPE
timepoint of peak effect (rat; applied alone (first ingredient i.v., second ingredient i.p.)): 15 min p. appl.
ED50 (rat; applied alone i.v., 15 min p. appl.; series a) (Indometacin)): 3.38 (3.01-3.74) μg/kg
ED50 (rat; applied alone i.v., 15 min p. appl.; series b) (Diclofenac sodium)): 3.31 (2.85-3.75) μg/kg
